## Apparent affinities of Ab-95 variants for a coronavirus HR2 peptide

Reference: Engelhart et al. 2022, doi:10.1038/s41597-022-01779-4. File: FLAb, binding data.

Binding partner: SARS-CoV-2 spike HR2 peptide, sequence PDVDLGDISGINAS.

The variants keep the heavy chain, the linker and the frameworks of Ab-95 (scFv order VH, a (GGGGS)3 linker, VL).
VH: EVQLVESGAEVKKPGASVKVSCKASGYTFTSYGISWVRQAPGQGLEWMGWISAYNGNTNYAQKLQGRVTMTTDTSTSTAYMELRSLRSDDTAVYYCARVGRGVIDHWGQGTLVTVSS
VL: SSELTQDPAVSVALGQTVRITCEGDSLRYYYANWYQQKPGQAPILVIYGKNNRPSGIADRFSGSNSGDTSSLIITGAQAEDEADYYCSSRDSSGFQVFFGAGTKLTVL

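AAYL52 was designed without a model: most single CDR substitutions and a random sample of double and triple ones. The scFvs were displayed on barcoded MATa yeast, the peptide on MATalpha yeast. After mating in shaken culture at 30 °C for 16 h, diploids were selected and their barcode pairs sequenced. Each replicate has its own calibration line, from reference interactions of the BCL2 family. Mating was done three times.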

Variants are written as CDR1, CDR2 and CDR3 of the light chain (limits as in the source). Parent: EGDSLRYYYAN, GKNNRPS, SSRDSSGFQVF.
Numbers give log10(Kd / nM), so 0 is 1 nM and 3 is 1 µM. Smaller is tighter.
A pair that was not seen in that replicate is written "nd"; this usually means weak binding, but a binder can also be missed.
Parent in this assay: reference entry 2.31, copy in this library 2.25.
Nonspecific signal, from three strains lacking the peptide, appeared in 28% of pairings of library AAYL52, centred on 3.91 (5% of these signals below 2.90); values are not corrected for it. The control count says in how many pairings with the empty strains this scFv gave a signal, with their mean in brackets.

| # | CDR-L1 | CDR-L2 | CDR-L3 | log10 Kd, replicates | empty controls |
|---|---|---|---|---|---|
| 1 | EMDSLRYYYAN | GKNNRPS | SSADSSGFRVF | 4.21 3.79 nd | 2 of 9 (3.80) |
| 2 | EGDSLRYYYAN | GKNHRIS | SSRDSSGFRVF | nd nd nd | 1 of 9 (3.03) |
| 3 | EGDSLRYYYAN | AKNDRPS | SSRDSSVFQVF | 3.55 4.82 nd | 2 of 9 (3.89) |
| 4 | EGDSWRYYYAN | GKNYEPS | SSRDSSGFQVF | 5.16 nd nd | 0 of 9 |
| 5 | EGDSLRYYYAN | GYNNRPS | SSRDSSYFQVF | 2.83 2.62 nd | 4 of 9 (3.41) |
| 6 | EGDSLRYYYAN | GKRNRNS | SSRDSSGFQVN | nd 3.14 nd | 3 of 9 (3.44) |
| 7 | HGDSLRYYYAN | GKYNRPS | SSRDSSVFQVF | nd 5.38 3.51 | 2 of 9 (4.11) |
| 8 | EGDSLRYYYMN | GKNNRPS | SSRDSSVFQVF | 4.08 3.39 4.42 | 4 of 9 (4.42) |
| 9 | EGDSLRYYYAN | GKNNRPS | SSRDKSGFQVH | 1.90 1.97 1.33 | 7 of 9 (3.97) |
| 10 | EGDSNRYYYAN | GKNNRPS | VSRDLSGFQVF | nd nd 4.16 | 2 of 9 (3.81) |
| 11 | EGDSLRYYEAN | GFNNVPS | SSRDSSGFQVF | nd 3.10 nd | 0 of 9 |
| 12 | EGDSLRYYYAY | GKNNRPS | SSFRSSGFQVF | nd nd nd | 1 of 9 (4.17) |
| 13 | EGNSLSYYYAN | GKNNRPS | SSRDSKGFQVF | 4.31 3.11 2.95 | 4 of 9 (4.30) |
| 14 | GGDSLRYYYAN | GKNNRPS | SPRDSHGFQVF | nd 3.41 nd | 3 of 9 (3.86) |
| 15 | CGWSLRYYYAN | GKNNRPS | SSRSSSGFQVF | 3.74 nd nd | 1 of 9 (3.43) |
| 16 | EGDRLRYYYAN | GKNGRPS | SSRDSSGFQYF | 3.97 nd nd | 2 of 9 (4.61) |
| 17 | EGDSLRYYYAN | GKNDRPS | SEEDSSGFQVF | nd nd nd | 2 of 9 (4.08) |
| 18 | EGVSYRYYYAN | GKNWRPS | SSRDSSGFQVF | nd nd nd | 1 of 9 (4.35) |
| 19 | EDDSLSYYYAN | GKKNRPS | SSRDSSGFQVF | 3.10 3.85 nd | 3 of 9 (5.18) |
| 20 | EGSSLRYYFAN | GKNNRIS | SSRDSSGFQVF | nd 2.72 1.84 | 2 of 9 (4.07) |
| 21 | EGDSLRYYYAN | GFNNRPS | SPRDSSGFQPF | 3.50 3.03 3.51 | 2 of 9 (3.96) |
| 22 | EGDSLLYYYAN | GKNNYPS | GSRDSSGFQVF | 3.80 3.78 2.18 | 3 of 9 (4.88) |
| 23 | EGDSLRYYYAN | GKNNWPS | SSRDMSNFQVF | 3.58 nd nd | 2 of 9 (3.65) |
| 24 | EGDSLRYYYAN | GKNNRPS | KSRASSGFQVF | 5.77 nd nd | 2 of 9 (4.26) |
| 25 | EGDRLRYYYAN | GKWNRPS | SSRDSSGFQVT | nd nd nd | 0 of 9 |
| 26 | EGDSLAYYYAN | GPNNRPS | SSRYSSGFQVF | 2.95 2.70 3.74 | 3 of 9 (4.44) |
| 27 | EGDSLRYYYAN | WKRNRPS | QSRDSSGFQVF | 3.40 nd nd | 3 of 9 (3.59) |
| 28 | EGDSDRYYYAN | GYNNRPS | SSRDSSGFQVF | 3.76 3.81 3.72 | 3 of 9 (4.14) |
| 29 | EGDSLRHYMAN | GKNNRPS | SSLDSSGFQVF | 1.60 2.17 1.32 | 1 of 9 (4.60) |
| 30 | EGDSLRSYYAN | GKNNRPV | SSCDSSGFQVF | nd 2.57 nd | 2 of 9 (3.50) |
| 31 | EGDDLRYYYAN | GNNNRPS | SSRDSSQFQVF | 1.91 2.16 2.16 | 4 of 9 (4.18) |
| 32 | EGDSLRYYYAN | GKNNRPV | SSYDSSGFQVI | 4.91 3.81 3.21 | 4 of 9 (4.15) |
| 33 | EGDSLRYYYAN | GRNNRPS | SSRDKSQFQVF | 2.50 2.57 2.15 | 4 of 9 (4.53) |

Extract of 5 entries:

CDR-L1,CDR-L2,CDR-L3,"log10 Kd, replicates",empty controls
EGDSLRYYYAN,GKNHRIS,SSRDSSGFRVF,nd nd nd,1 of 9 (3.03)
EGDSLRYYYAN,GYNNRPS,SSRDSSYFQVF,2.83 2.62 nd,4 of 9 (3.41)
EGDSLLYYYAN,GKNNYPS,GSRDSSGFQVF,3.80 3.78 2.18,3 of 9 (4.88)
EGDSLRYYYMN,GKNNRPS,SSRDSSVFQVF,4.08 3.39 4.42,4 of 9 (4.42)
EGDSLRHYMAN,GKNNRPS,SSLDSSGFQVF,1.60 2.17 1.32,1 of 9 (4.60)